Laboratory results from patent US10226514B2 (dated 2019).

Tested on: JNK
Assay: JNK activation in cells (c-Jun phosphorylation)
Type: cell-based
Settings: inhibitor 10 μM 30 minutes, then anisomycin 25 ng/ml two hours

Structure (SMILES): CCOc1nc(NC(=O)Cc2cc(OC)ccc2OC)cc(N)c1C#N [JNK inhibitor VIII]
- anisomycin-induced JNK activation (c-Jun phosphorylation): completely abolishing
